We go through one molecule from ChEMBL document CHEMBL1131645, “Synthesis and activity studies of N-[omega-N'-(adamant-1'-yl)aminoalkyl]- 2-(4'-dimethylaminophenyl)acetamides: in the search of selective inhibitors for the different molecular forms of acetylcholinesterase” (Bioorg Med Chem Lett, 1998).

Amino acid sequences for entries named in this document (tags omitted). A change or cut given only in a name is not applied to a line headed by its entry.
UniProt O42275: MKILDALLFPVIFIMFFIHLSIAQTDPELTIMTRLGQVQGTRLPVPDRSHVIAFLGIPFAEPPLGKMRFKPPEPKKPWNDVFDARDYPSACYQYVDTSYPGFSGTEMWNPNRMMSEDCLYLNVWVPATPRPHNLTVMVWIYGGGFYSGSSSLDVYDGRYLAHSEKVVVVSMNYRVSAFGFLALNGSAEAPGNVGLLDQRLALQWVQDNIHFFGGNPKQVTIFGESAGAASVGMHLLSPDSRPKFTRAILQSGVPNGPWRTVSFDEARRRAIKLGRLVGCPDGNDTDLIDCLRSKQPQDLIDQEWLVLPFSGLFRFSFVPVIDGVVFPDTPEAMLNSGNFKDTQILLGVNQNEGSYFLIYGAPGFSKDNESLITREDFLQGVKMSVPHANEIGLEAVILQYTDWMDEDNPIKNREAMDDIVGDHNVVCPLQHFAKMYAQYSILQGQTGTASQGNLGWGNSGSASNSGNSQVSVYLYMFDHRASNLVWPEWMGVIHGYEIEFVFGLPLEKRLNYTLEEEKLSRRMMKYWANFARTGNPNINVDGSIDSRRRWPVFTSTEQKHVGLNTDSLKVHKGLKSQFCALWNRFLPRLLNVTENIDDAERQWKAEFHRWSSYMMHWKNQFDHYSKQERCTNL

For this test, the target named is Acetylcholinesterase (Electrophorus electricus, UniProt O42275).

The IC50 is the concentration needed to halve the response being measured. A low value points to greater potency in that assay. Regarding `CNC(=O)Oc1ccc2c(c1)[C@]1(C)CCN(C)[C@@H]1N2C` [PHYSOSTIGMINE], the IC50 was 0.046 µM.
